{"source": "PubChem BioAssay (NCI)", "assay_in_all_cases": "NCI tumour cell line growth inhibition, 48 h", "key": {"NCI-H522 lung": {"system": "NCI-H522 lung"}, "T-47D breast": {"system": "T-47D breast"}, "LOX IMVI melanoma": {"system": "LOX IMVI melanoma"}, "BT-549 breast": {"system": "BT-549 breast"}, "HCT-116 colon": {"system": "HCT-116 colon"}, "DMS 114 small cell lung": {"system": "DMS 114 small cell lung"}, "NCI-H460 lung": {"system": "NCI-H460 lung"}, "UACC-62 melanoma": {"system": "UACC-62 melanoma"}, "MCF7 breast": {"system": "MCF7 breast"}, "K-562 leukemia": {"system": "K-562 leukemia"}, "OVCAR-3 ovarian": {"system": "OVCAR-3 ovarian"}, "MALME-3M melanoma": {"system": "MALME-3M melanoma"}, "HS 578T breast": {"system": "HS 578T breast"}, "DMS 273 small cell lung": {"system": "DMS 273 small cell lung"}, "RPMI-8226 leukemia": {"system": "RPMI-8226 leukemia"}, "HL-60(TB) leukemia": {"system": "HL-60(TB) leukemia"}, "P388 leukemia": {"system": "P388 leukemia"}, "SW-620 colon": {"system": "SW-620 colon"}, "DLD-1 colon": {"system": "DLD-1 colon"}, "KM20L2 colon": {"system": "KM20L2 colon"}, "SR leukemia": {"system": "SR leukemia"}, "CCRF-CEM leukemia": {"system": "CCRF-CEM leukemia"}, "NCI/ADR-RES ovarian": {"system": "NCI/ADR-RES ovarian"}, "M19-MEL melanoma": {"system": "M19-MEL melanoma"}, "SNB-78 CNS": {"system": "SNB-78 CNS"}, "KM12 colon": {"system": "KM12 colon"}, "SNB-75 CNS": {"system": "SNB-75 CNS"}, "HCT-15 colon": {"system": "HCT-15 colon"}, "LXFL 529 NSCLC": {"system": "LXFL 529 NSCLC"}, "SN12K1 renal": {"system": "SN12K1 renal"}}, "note": "Where “and” joins values, the source holds several entries; their conditions need not be identical. Identical values can stand only once.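 Values below derive from 48-hour exposures of cells grown in 96-well plates, with endpoints linearly interpolated between the two concentrations bracketing the appropriate inhibition level. The concentration for 50% growth inhibition is given as GI50. TGI marks complete inhibition of growth.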", "data": [{"smiles": "CC1=C[C@H]2O[C@@H]3C[C@H]4OC(=O)/C=C\\C=C\\C(C(C)O)OCC(O)C(C)CC(=O)OC[C@@]2(C[C@@H]1O)[C@]4(C)[C@@]31CO1", "note": "(stereo partly drawn)", "values": [{"measurement": "TGI", "setting": "NCI-H522 lung", "result": "3.02 nM and 30 nM"}, {"measurement": "TGI", "setting": "T-47D breast", "result": 7.28, "unit": "nM"}, {"measurement": "TGI", "setting": "LOX IMVI melanoma", "result": "4.56 nM and 30 nM"}, {"measurement": "TGI", "setting": "BT-549 breast", "result": 7.66, "unit": "nM"}, {"measurement": "TGI", "setting": "HCT-116 colon", "result": 13.8, "unit": "nM"}, {"measurement": "GI50", "setting": "DMS 114 small cell lung", "result": 1.88, "unit": "nM"}, {"measurement": "TGI", "setting": "DMS 114 small cell lung", "result": 3.31, "unit": "nM"}, {"measurement": "TGI", "setting": "NCI-H460 lung", "result": "24.6 nM and 37.8 nM"}, {"measurement": "TGI", "setting": "UACC-62 melanoma", "result": "9.09 nM and 89.6 nM"}, {"measurement": "TGI", "setting": "MCF7 breast", "result": "> 300000", "unit": "nM"}, {"measurement": "GI50", "setting": "K-562 leukemia", "result": 2.48, "unit": "nM"}, {"measurement": "TGI", "setting": "OVCAR-3 ovarian", "result": "9.44 nM and 93.3 nM"}, {"measurement": "TGI", "setting": "MALME-3M melanoma", "result": "4.65 nM and 30 nM"}, {"measurement": "TGI", "setting": "HS 578T breast", "result": 3.42, "unit": "nM"}, {"measurement": "GI50", "setting": "DMS 273 small cell lung", "result": "< 1", "unit": "nM"}, {"measurement": "TGI", "setting": "RPMI-8226 leukemia", "result": 8.91, "unit": "nM"}, {"measurement": "TGI", "setting": "HL-60(TB) leukemia", "result": 3.01, "unit": "nM"}, {"measurement": "TGI", "setting": "P388 leukemia", "result": "> 300000", "unit": "nM"}, {"measurement": "TGI", "setting": "SW-620 colon", "result": "26.5 nM and 213 nM"}, {"measurement": "GI50", "setting": "DLD-1 colon", "result": 3.86, "unit": "nM"}, {"measurement": "GI50", "setting": "KM20L2 colon", "result": "20.7 nM and 40.9 nM"}, {"measurement": "TGI", "setting": "KM20L2 colon", "result": "54.9 nM and 158 nM"}, {"measurement": "GI50", "setting": "SR leukemia", "result": 3.04, "unit": "nM"}, {"measurement": "TGI", "setting": "SR leukemia", "result": 12.5, "unit": "nM"}, {"measurement": "GI50", "setting": "CCRF-CEM leukemia", "result": "< 1", "unit": "nM"}, {"measurement": "TGI", "setting": "CCRF-CEM leukemia", "result": 2.75, "unit": "nM"}, {"measurement": "GI50", "setting": "NCI/ADR-RES ovarian", "result": 1010, "unit": "nM"}, {"measurement": "TGI", "setting": "NCI/ADR-RES ovarian", "result": 16200, "unit": "nM"}, {"measurement": "GI50", "setting": "M19-MEL melanoma", "result": 3.41, "unit": "nM"}, {"measurement": "TGI", "setting": "M19-MEL melanoma", "result": "5.01 nM and 41.1 nM"}, {"measurement": "GI50", "setting": "SNB-78 CNS", "result": "4.72 nM and 44.8 nM"}, {"measurement": "TGI", "setting": "SNB-78 CNS", "result": "18.1 nM and 120 nM"}, {"measurement": "TGI", "setting": "KM12 colon", "result": 40.5, "unit": "nM"}, {"measurement": "TGI", "setting": "SNB-75 CNS", "result": "18.1 nM and 85.8 nM"}, {"measurement": "TGI", "setting": "HCT-15 colon", "result": "42.5 nM and 311 nM"}, {"measurement": "GI50", "setting": "LXFL 529 NSCLC", "result": 1.86, "unit": "nM"}, {"measurement": "TGI", "setting": "LXFL 529 NSCLC", "result": 3.84, "unit": "nM"}, {"measurement": "TGI", "setting": "SN12K1 renal", "result": 41.5, "unit": "nM"}]}]}
